The series deals with SD rats. Nature of the series: Safety research: single tail vein injection toxicity, maximum tolerated dose. The format is in vivo. Conditions: male SD rats; for toxicity: dose of 1 mg/kg. How it is done: Male Sprague-Dawley (SD) rats (SPF grade) were selected, divided into groups (3 rats per group), and administered via tail vein injection. Single administration, observed for 48 hours after administration. During the experiment, two cage-side observations and two detailed clinical observations were performed every day (observation was carried out before and 2 hours after the administration on the day of administration). Toxicity study animals were weighed and recorded every day, and food consumption of each animal for 24±1 hours was measured and recorded every day. At the end of the experiment (D3), euthanasia was performed by carbon dioxide inhalation anesthesia and the death of the animal was ensured by abdominal aorta/venous bleeding, and gross anatomy was performed and recorded.

Each structure is given as a SMILES string.

On to `Cc1cc2c(c(C)c1NC(=O)CC(C)(C)C)CCCCN2Cc1ccc(Cl)s1` [Compound A6, N-(1-((5-chlorothiophene-2-yl)methyl)-6,8-dimethyl-2,3,4,5-tetrahydro-1H-benzazepine-7-yl)-3,3-dimethylbutamide], for which the Detailed clinical observation result is recorded as “No obvious abnormalities” (0.3 mg/kg) and “No obvious abnormalities” (1 mg/kg).

Consider `Cc1cc2c(c(C)c1NC(=O)CCC1CCCC1)CCCCN2Cc1ccc(F)cc1` [Compound A2, 3-cyclopentyl-N-(1-(4-fluorobenzyl)-6,8-dimethyl-2,3,4,5-tetrahydro-1H-benzazepine-7-yl)propionamide], for which the Detailed clinical observation entry runs as follows: (0.3 mg/kg) “No obvious abnormalities”; (1 mg/kg) “No obvious abnormalities”.

`Cc1cc2c(c(C)c1NC(=O)CC(C)(C)C)CCCCN2Cc1ccc(F)s1` [Compound A7, N-(1-((5-fluorothiophene-2-yl)methyl)-6,8-dimethyl-2,3,4,5-tetrahydro-1H-benzazepine-7-yl)-3,3-dimethylbutamide]: the “toxicity” value is reported as “transient slight toxicity”. The Detailed clinical observation entry (0.3 mg/kg) is reported as “No obvious abnormalities”.

Consider `Cc1cc2c(c(C)c1NC(=O)CCC1CCCC1)CCCCN2Cc1ccc(F)s1` [Compound A8, 3-cyclopentyl-N-(1-((5-fluorothiophene-2-yl)methyl)-6,8-dimethyl-2,3,4,5-tetrahydro-1H-benzazepine-7-yl)propionamide], for which the Detailed clinical observation entry runs as follows: (0.3 mg/kg) “No obvious abnormalities”; (1 mg/kg) “No obvious abnormalities”.

As to `Cc1cc2c(c(C)c1NC(=O)CC(C)(C)C)CCCCN2Cc1ccc(F)cc1` [Compound A1, N-(1-(4-fluorobenzyl)-6,8-dimethyl-2,3,4,5-tetrahydro-1H-benzazepine-7-yl)-3,3-dimethylbutanamide], the “toxicity” value is given as “transient slight toxicity”. The Detailed clinical observation result (0.3 mg/kg) is listed as “No obvious abnormalities”.

(Values after US12492170B2, “Tetrahydro-1H-benzazepine compound as potassium channel modulator, preparation method and use thereof” (Shanghai Zhimeng Biopharma Inc., priority 2019, dated 2025).)
